This passage reports hMAO-A % inhibition results from paper PMC11906766 (Scientific Reports, 2025).

Amino acid sequences for entries named in this document (tags omitted).
UniProt P21397, whole entry: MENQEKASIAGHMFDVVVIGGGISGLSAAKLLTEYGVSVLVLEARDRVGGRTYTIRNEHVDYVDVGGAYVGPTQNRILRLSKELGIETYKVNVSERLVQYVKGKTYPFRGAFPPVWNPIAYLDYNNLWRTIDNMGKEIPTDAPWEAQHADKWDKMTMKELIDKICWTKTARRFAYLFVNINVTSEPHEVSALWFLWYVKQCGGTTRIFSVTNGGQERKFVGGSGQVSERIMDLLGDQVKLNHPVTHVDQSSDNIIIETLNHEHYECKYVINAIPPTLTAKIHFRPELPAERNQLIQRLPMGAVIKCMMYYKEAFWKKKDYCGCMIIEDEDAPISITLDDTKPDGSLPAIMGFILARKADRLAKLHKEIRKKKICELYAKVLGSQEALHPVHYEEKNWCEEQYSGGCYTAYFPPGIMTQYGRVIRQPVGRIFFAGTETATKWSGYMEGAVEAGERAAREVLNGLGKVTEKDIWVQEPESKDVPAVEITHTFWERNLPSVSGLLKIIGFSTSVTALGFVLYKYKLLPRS

SMILES strings stand for the structures. Marks after values point to notes of the source that are not given here.

The target in this assay is hMAO-A (Homo sapiens, UniProt P21397). Put plainly: hMAO-A inhibition assay. The assay is classed as biochemical. The conditions noted are these: % inhibition at 0.1 µM.

Regarding `C#CCN(C)CCCOc1ccc(Cl)cc1Cl` [Clorgyline, reference compound], the hMAO-A % inhibition is recorded as 79.9% ± 0.46 ^c.
